Experiment: Solubility of the additive in water at 20° C.
Type: physicochemical

Substance | Solubility [mg/mL]
Ammonium molybdate [AmMD(V), reference compound] | 430
Calcium gluconate [CaGl] | 30

Reference: patent US10231463B2, “Food mass suitable for microwaving” (Chemische Fabrik Budenheim KG, priority 2013, dated 2019)
